For data set [1], the system named is bovine erythrocytes. Briefly: Phototoxicity (glow lamp) and dark toxicity by hemolysis of bovine erythrocytes. It counts as cell-based. The procedure: Bovine erythrocytes were isolated from blood plasma stored with sodium citrate. 1 mL of bovine blood was treated at centrifuge (3,000 rpm) for 10 min to precipitate erythrocytes. The supernatant was decanted, 2 mL of physiological solution were added, treated and erythrocytes were precipitated with centrifuge. The washing procedure was repeated for 3 times and the precipitated erythrocytes were collected. […] Cells were dye-incubated for 45 minutes at 37° C. in the dark. Then the examined suspensions of cells (erythrocytes) were placed at a distance of 30-cm from a 250 W glow red-lamp equipped with a water-based heat filter and irradiated with occasional stirring. After irradiation, cells were stored at 4° C. for 15 hours. […] The hemolysis level (percentage of hemolyzed cells) was determined as the ratio of absorbances of the supernatant and a solution of 100% hemolysed cells. The 100% hemolysis was taken as the value obtained when the given number of erythrocytes were suspended in distilled water.

A short description of data set [2]: Absorption spectra and extinction coefficients of dyes. Type of data set: physicochemical. The protocol:
Absorption spectra were measured at RT on a Perking Elmer Lambda 35 UV/Vis spectrophotometer. […] The stock solution was diluted (1:2000) and the absorbance was measured in a 5-cm standard quartz cell. All dye concentrations were in the range of 1.1 to 2.0×10^−7 M. The extinction coefficients were calculated according to Lambert-Beer's law.

The conditions of data set [3]: background statement; cited from earlier work.

Structures are written as SMILES.

Turning to `CC1(C)C(/C=C/C=C/C=C/C=C2\N(CCCCS(=O)(=O)[O-])c3ccc4ccccc4c3C2(C)C)=[N+](CCCCS(=O)(=O)[O-])c2ccc3ccccc3c21.[Na+]` [ICG, Indocyanine green, reference compound], the Hemolysis in data set [1] (Dark, 5 μM) stood at 1.6%; in data set [1] (Dark, 10 μM) it was 1.7%; in data set [1] (Glow Lamp, 1 μM, exposure 120 min), 4%; in data set [1] (Glow Lamp, 5 μM, exposure 60 min), 16%; in data set [1] (Glow Lamp, 5 μM, exposure 120 min) it was 65%. The values for the Absorption max. in data set [2] (Methanol) and in data set [2] (Water) were 784 nm and 780 nm, respectively. In addition, the absorb light at in data set [3] is given as ~780 nm.

The record behind these values is patent publication US9572881B2, “Halogenated compounds for photodynamic therapy” (Nanoquantum Sciences, Inc., priority 2012, dated 2017).
